## Ab-14 light chain CDR variants: yeast mating affinities

Data: MIT Lincoln Laboratory AlphaSeq set, Li et al. 2023, doi:10.1038/s41467-023-39022-2, as distributed in FLAb.

Binding partner: SARS-CoV-2 spike HR2 peptide, sequence PDVDLGDISGINAS.

Ab-14 is the parent antibody, in scFv form: VH, then a 15-residue (Gly4Ser)3 linker, then VL. The heavy chain is unchanged in all variants.
VH: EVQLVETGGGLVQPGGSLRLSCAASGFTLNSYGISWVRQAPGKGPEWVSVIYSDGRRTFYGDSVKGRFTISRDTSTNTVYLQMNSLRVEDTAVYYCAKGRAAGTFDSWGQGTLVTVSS
VL: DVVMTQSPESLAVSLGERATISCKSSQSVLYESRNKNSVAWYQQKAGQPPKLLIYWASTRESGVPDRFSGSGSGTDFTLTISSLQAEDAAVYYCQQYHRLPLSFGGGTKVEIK

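The starting antibody came from a phage panning campaign against this peptide. This is the validation round: designs drawn from the data on random variants, tested in the same kind of assay. Group labels follow the data file (Ctrl: baseline library sampled from a position-specific scoring matrix, with some repeated check sequences; Rand: our label for a block that the file lists under HC and that is probably the random mutants of the ten best first-round binders; GP: Gaussian process model; HC: hill climbing; Gen: genetic algorithm; a sequence that several methods proposed may carry one label only). AlphaSeq pools MATa yeast showing the antibodies with MATalpha yeast showing the peptide. The frequency of each diploid, read from paired DNA barcodes, reflects how well the two displayed proteins bind. Read counts were normalised to the haploid input and turned into Kd by a linear fit to BCL2-family pairs of known affinity, for each replicate. Each pool was mated in six replicate cultures.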

Each variant is given by its three light chain CDRs, as the data file delimits them; those of the parent are KSSQSVLYESRNKNSVA, WASTRES, QQYHRLPLS. This list holds designs with at most six substitutions. Each Kd is an estimate from the mating assay, the geometric mean of the replicates in which the pair was seen; lower is stronger. An entry "no signal" has no value in the source: the pair was not observed among the diploids in any replicate. This suggests poor binding but is not conclusive. Order: sorted from the lowest average up, undetected variants last. The authors' rule: three or more of the six replicates give a measured affinity, fewer mean a poor binder.

- KSSQSVLYESGNKNSVA / DASTRED / QQYHRLPLS [GP_HC] -> 58 pM (5 of 6 replicates)
- KLSQSVLYEERNKNNVA / GASTRES / QQYHRLPLS [GP_Gen] -> 240 pM (6 of 6 replicates)
- HLSQSVLYEERNKNSVA / NASQRES / QQYHRLPLS [GP_Gen] -> 280 pM (6 of 6 replicates)
- KVSISGLYESRNKNSVA / EASTRES / QQYHRLPLS [GP_HC] -> 500 pM (6 of 6 replicates)
- KLSQSMLYESRNKNSVA / SASTRES / QQYHRLPLS [GP_Gen] -> 550 pM (6 of 6 replicates)
- KSGQGVLMESRNWNSVA / GASTRES / QQYHRLPLS [GP_HC] -> 570 pM (6 of 6 replicates)
- KLQQSQLYESRNKNSVA / NASTREV / QQYHRLPLS [GP_Gen] -> 800 pM (6 of 6 replicates)
- KVQQSQEYESRNKNSVA / HASTRED / QQYHRLPLS [GP_HC] -> 800 pM (6 of 6 replicates)
- KSSQSMLGESRNKNSVA / DASTRES / QQYHRLPLS [GP_HC] -> 810 pM (6 of 6 replicates)
- KLSQSVLYESRNKNAVA / HASTRES / QQYHRLPLS [GP_Gen] -> 840 pM (6 of 6 replicates)
- KLQQSVLYEERNKNSVA / NASQRES / QQYHRLPLS [GP_Gen] -> 880 pM (6 of 6 replicates)
- KSSISYLYESENKNSVA / EASTRES / QQYHRLPLS [GP_HC] -> 890 pM (6 of 6 replicates)
- KLSQSDLYESRNKNNVA / HASTRCS / QQYHRLPLS [GP_Gen] -> 920 pM (6 of 6 replicates)
- KSSISYLYESRNGNSVA / EASTREQ / QQYHRLPLS [GP_HC] -> 1.0 nM (6 of 6 replicates)
- KSLQSGLYESRDKNSVA / HASTRED / QQYHRLPLS [GP_HC] -> 1.1 nM (6 of 6 replicates)
- KYSQSVFYESRNKNSIA / NASTREM / QQYHRLPLS [Ctrl] -> 1.1 nM (6 of 6 replicates)
- KVSISYLLESRNKNSVA / EASTREL / QQYHRLPLS [GP_HC] -> 1.3 nM (6 of 6 replicates)
- KFSQSVLYESRNKNSVA / NRSTRES / QQYHRFPLS [Ctrl] -> 2.4 nM (6 of 6 replicates)
- KLSQSELYESRNKNSVA / EASERES / QQYHRLPLS [GP_Gen] -> 2.6 nM (6 of 6 replicates)
- KSSQSVLYEDRNSNSVA / QASTRES / QQYHRLPLS [Ctrl] -> 5.0 nM (6 of 6 replicates)
- KSSQSFLYESRNKNSVA / GASTRES / QTYHRLPLS [GP_HC] -> 5.1 nM (6 of 6 replicates)
- KVPQSQLYESRNKNSVA / QASTRES / QQYHRLPLS [GP_Gen] -> 20 nM (6 of 6 replicates)
- KSPQSELYESRNKNSVA / HASTRED / QSYHRLPLS [GP_HC] -> 30 nM (6 of 6 replicates)
- KSSQSVVYESRNKNSVA / RASTRES / QQCHRLPLS [Ctrl] -> 40 nM (5 of 6 replicates)
- KMSQPLLYESRNCNSVA / AASTRES / QQYHRLPLS [Ctrl] -> 78 nM (6 of 6 replicates)
- KSSQSVLYESTNKNSVA / WASTRES / QQYRRLPLS [Ctrl] -> 100 nM (5 of 6 replicates)
- KSSQHVLYESRNKNSVA / YASTRES / QQYHRLPLS [Ctrl] -> 110 nM (6 of 6 replicates)
- KLRQSTLYESRNKNSVA / WASTRES / RQYHKTPLS [Rand] -> 500 nM (2 of 6 replicates)
- KSSQSVLFESRTKNSIA / AASTRES / QQYHRLPLS [Ctrl] -> no signal (0 of 6 replicates)
- KLSQSVLYESRNKNEVA / WASTRES / QQYHRLPDS [Ctrl] -> no signal (0 of 6 replicates)
- GQSISVLYESTNKNSVA / WADTRES / QQYHRLPLS [Ctrl] -> no signal (0 of 6 replicates)
- KSSQSQLYETDNKNSVA / WASTREE / NQYHRLPLS [Ctrl] -> no signal (0 of 6 replicates)

Picked from the list: the 3 lowest averages where every replicate gave a value.

- KLSQSVLYEERNKNNVA / GASTRES / QQYHRLPLS [GP_Gen] -> 240 pM (6 of 6 replicates)
- HLSQSVLYEERNKNSVA / NASQRES / QQYHRLPLS [GP_Gen] -> 280 pM (6 of 6 replicates)
- KVSISGLYESRNKNSVA / EASTRES / QQYHRLPLS [GP_HC] -> 500 pM (6 of 6 replicates)

A sequence measured in both rounds can read differently, since the two assays cover different ranges. Background: pairings of all light chain designs with three empty control strains gave a value in 4% of cases (median 430 nM, 5th percentile 38 nM). Values in that range, when seen in few replicates, are hard to tell from nonspecific mating.